Laboratory results taken from ChEMBL document CHEMBL1139307, “1-Naphthyl and 4-indolyl arylalkylamines as selective monoamine reuptake inhibitors” (Bioorg Med Chem Lett, 2009).

Amino acid sequences for entries named in this document (tags omitted).
UniProt P31652, whole entry: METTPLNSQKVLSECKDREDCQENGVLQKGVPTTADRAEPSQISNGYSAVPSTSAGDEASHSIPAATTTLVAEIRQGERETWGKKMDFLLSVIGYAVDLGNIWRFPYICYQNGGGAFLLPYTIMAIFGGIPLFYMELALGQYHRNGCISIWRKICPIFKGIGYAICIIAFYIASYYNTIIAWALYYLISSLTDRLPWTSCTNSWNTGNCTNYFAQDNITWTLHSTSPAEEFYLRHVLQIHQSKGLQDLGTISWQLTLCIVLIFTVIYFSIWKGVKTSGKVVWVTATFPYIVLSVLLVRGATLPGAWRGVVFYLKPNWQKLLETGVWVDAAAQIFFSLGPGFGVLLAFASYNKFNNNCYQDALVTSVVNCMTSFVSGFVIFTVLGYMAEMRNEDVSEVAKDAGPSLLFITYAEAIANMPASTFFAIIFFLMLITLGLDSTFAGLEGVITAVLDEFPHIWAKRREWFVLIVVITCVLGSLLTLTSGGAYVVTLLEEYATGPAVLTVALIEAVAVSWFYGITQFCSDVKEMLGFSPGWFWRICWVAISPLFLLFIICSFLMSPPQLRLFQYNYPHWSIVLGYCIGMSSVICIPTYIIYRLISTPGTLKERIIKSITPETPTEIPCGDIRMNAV

Target: Sodium-dependent serotonin transporter (Rattus norvegicus, UniProt P31652)
Assay: Displacement of [3H]citalopram from SERT in Sprague-dawley rat frontal cortex by liquid scintillation spectrophotometry
Assay type: tissue-based

SMILES: CNCC[C@@H](Oc1ccccc1C)c1ccccc1 (racemic) [ATOMOXETINE]
- Ki: 1500 nM

SMILES: CNCCC(Oc1ccccc1OC)c1ccccc1 (racemic) [NISOXETINE]
- Ki: 277 nM
